This assay addresses T1, Ros-G2032R (Homo sapiens, UniProt P08922, G2032R).
T1 construct: purchased Reaction Biology Corp
In words: Kinase inhibitory activity (33P-ATP filtration-binding, Reaction Biology Corp.). It counts as biochemical. The conditions noted are these: read-out: Half Inhibitory Concentrations of Kinases IC50, Ros-G2032R.

Amino acid sequences for entries named in this document (tags omitted). Residues count along the entry.
UniProt P08922, 28-2347 G2032R: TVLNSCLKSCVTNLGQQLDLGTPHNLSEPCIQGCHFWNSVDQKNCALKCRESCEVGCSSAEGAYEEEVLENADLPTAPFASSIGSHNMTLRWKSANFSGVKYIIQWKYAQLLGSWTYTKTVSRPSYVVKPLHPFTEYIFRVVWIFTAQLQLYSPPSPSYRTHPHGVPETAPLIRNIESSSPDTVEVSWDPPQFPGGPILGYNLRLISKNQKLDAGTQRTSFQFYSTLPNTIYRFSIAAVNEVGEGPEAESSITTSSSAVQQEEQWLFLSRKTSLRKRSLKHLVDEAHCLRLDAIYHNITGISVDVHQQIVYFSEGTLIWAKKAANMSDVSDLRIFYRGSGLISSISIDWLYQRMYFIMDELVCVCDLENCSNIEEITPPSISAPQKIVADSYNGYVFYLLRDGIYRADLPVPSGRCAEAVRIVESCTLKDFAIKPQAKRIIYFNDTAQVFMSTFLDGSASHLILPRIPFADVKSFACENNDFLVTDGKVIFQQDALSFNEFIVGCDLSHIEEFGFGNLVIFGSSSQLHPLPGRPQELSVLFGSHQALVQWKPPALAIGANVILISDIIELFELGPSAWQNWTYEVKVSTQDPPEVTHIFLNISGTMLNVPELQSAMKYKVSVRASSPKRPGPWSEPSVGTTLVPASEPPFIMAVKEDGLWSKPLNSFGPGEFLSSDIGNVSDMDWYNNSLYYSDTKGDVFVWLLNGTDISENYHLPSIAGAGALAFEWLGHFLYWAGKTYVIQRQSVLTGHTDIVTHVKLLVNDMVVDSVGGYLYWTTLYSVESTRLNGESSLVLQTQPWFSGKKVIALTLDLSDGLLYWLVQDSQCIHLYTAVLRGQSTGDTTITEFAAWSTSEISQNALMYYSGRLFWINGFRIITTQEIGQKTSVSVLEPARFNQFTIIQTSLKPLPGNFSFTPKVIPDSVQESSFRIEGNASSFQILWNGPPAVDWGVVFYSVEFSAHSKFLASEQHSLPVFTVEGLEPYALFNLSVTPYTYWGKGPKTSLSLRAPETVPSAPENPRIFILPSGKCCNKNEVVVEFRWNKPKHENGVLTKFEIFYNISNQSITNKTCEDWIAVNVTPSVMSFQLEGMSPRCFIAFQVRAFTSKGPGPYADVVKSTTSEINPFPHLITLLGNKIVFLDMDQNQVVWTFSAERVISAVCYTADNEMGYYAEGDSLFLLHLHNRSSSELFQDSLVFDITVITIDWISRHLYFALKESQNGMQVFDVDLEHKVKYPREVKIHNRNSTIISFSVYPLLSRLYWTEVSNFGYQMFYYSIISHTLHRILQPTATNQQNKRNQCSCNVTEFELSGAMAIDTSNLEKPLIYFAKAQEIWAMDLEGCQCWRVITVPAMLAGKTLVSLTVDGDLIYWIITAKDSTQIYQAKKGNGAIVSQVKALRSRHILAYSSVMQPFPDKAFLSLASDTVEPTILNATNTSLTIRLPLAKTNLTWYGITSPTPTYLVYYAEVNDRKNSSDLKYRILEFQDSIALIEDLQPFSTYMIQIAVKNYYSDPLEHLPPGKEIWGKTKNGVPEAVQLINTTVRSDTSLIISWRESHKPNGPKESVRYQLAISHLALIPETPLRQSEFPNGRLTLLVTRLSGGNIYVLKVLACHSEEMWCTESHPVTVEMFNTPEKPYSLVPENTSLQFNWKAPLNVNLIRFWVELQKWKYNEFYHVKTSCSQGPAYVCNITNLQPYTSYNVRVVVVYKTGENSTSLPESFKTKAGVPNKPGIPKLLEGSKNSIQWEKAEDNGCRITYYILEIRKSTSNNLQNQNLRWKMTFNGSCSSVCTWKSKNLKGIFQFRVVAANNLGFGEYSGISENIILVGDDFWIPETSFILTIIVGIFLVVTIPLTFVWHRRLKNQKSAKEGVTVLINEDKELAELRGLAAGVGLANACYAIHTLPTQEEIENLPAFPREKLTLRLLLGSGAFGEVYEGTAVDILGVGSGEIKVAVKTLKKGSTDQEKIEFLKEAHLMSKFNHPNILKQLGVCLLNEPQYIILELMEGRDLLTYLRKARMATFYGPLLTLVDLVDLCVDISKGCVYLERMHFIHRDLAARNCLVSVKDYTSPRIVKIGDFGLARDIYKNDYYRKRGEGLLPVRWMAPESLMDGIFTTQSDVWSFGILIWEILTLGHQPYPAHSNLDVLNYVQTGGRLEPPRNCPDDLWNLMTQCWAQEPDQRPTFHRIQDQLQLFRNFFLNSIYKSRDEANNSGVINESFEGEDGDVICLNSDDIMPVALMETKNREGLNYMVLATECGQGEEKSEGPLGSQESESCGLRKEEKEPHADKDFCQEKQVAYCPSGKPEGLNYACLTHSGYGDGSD

pIC50: −log10 of the molar value.

With `C[C@@H]1CCc2ncc(F)cc2[C@H]2CCCN2c2ccn3ncc(c3n2)C(=O)N1` [LOXO-195, reference compound], the pIC50 is 8.54.

The values above are taken from patent US20220289765A1, “CRYSTAL OF CARCINOGENIC FUSED KINASE INHIBITOR AND APPLICATIONS THEREOF” (Simcere Pharmaceutical Co., Ltd., priority 2019, published 2022).
